Source: ChEMBL document CHEMBL1131240, “Novel benzothiazolin-2-one and benzoxazin-3-one arylpiperazine derivatives with mixed 5HT1A/D2 affinity as potential atypical antipsychotics” (J Med Chem, 1998)

Target: T1, Alpha-1A adrenergic receptor (Bos taurus, UniProt P18130)
T1 sequence (P18130 whole entry): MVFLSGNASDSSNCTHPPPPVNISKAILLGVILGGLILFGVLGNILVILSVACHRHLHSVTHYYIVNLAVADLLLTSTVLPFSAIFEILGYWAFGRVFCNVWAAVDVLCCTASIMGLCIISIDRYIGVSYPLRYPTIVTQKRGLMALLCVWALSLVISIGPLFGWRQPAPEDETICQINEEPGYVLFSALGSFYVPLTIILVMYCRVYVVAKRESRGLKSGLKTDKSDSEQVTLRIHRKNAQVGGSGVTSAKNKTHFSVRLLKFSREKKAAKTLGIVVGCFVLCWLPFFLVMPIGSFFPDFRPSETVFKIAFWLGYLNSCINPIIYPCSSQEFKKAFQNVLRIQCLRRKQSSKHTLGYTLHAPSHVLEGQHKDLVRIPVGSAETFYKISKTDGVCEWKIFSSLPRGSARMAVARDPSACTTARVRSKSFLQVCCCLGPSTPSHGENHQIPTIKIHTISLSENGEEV
Test: Affinity towards Alpha-1A adrenergic receptor in membranes from bovine frontal cortex using [3H]prazosin
Assay type: tissue-based

Structure (SMILES): CN1CCN(C2=Nc3cc(Cl)ccc3Nc3ccccc32)CC1 [CLOZAPINE]
- IC50: 160 nM
